Assay results: publication PMC9519442, “Genotype–phenotype correlations in WHIM syndrome: a systematic characterization of CXCR4^WHIM variants” (Genes and Immunity, 2022)

The chains behind the UniProt entries cited, without tags or fusion partners. A line that says so, or that is headed by a name, gives the form on record, which may keep a tag or linker. Residues count along the entry.
UniProt P61073, 1-333 limits assumed: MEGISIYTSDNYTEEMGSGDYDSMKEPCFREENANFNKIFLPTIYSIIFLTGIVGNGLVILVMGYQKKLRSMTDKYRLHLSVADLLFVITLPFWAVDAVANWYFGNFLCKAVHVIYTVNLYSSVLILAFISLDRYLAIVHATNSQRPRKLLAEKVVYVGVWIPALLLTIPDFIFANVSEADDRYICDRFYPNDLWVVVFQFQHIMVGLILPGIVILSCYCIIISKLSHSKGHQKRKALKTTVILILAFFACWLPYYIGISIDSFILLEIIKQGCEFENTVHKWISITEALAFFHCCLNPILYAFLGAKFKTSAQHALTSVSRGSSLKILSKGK
UniProt P61073, whole entry: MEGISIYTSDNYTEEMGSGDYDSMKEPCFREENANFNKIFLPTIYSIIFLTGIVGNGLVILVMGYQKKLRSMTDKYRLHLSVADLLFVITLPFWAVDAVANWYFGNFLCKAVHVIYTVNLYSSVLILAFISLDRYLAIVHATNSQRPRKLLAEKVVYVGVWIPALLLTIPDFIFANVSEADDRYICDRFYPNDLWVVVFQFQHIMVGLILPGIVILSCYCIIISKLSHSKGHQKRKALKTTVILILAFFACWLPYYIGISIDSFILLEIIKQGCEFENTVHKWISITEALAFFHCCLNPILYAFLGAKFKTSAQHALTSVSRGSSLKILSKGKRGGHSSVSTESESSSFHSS
UniProt P61073, 1-317 limits assumed: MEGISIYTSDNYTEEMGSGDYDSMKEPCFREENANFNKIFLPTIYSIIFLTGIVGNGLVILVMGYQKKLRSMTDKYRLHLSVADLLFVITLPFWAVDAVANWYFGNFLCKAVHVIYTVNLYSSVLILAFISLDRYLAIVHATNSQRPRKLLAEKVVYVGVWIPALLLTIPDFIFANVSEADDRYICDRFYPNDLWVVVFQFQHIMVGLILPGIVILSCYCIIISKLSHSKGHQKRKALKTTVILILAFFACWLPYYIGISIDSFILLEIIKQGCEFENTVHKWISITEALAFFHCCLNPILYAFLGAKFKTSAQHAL
CXCR4 S324V fs*20 (Homo sapiens, UniProt P61073), UniProt P61073, with tags, fused parts or gaps, stated change not applied: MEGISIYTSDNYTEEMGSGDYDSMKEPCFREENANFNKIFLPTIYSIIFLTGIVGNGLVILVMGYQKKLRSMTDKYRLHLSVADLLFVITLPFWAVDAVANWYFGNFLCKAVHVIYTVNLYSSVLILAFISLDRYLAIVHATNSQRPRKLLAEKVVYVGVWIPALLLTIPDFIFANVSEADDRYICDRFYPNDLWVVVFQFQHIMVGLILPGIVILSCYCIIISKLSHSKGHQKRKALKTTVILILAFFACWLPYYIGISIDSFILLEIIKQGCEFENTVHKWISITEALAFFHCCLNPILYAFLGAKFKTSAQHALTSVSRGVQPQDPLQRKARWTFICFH
CXCR4 L329Q fs*13 (Homo sapiens, UniProt P61073), UniProt P61073, with tags, fused parts or gaps, stated change not applied: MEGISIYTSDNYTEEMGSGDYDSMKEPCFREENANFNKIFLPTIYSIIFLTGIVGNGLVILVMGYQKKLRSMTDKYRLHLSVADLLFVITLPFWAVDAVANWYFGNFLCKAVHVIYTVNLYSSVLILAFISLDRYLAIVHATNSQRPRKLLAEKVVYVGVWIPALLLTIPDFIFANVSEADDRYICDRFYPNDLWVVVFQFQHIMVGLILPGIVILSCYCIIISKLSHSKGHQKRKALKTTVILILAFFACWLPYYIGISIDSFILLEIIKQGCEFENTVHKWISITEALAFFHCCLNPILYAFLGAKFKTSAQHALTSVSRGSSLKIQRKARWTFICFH
CXCR4 S319C fs*24 (Homo sapiens, UniProt P61073), UniProt P61073, with tags, fused parts or gaps, stated change not applied: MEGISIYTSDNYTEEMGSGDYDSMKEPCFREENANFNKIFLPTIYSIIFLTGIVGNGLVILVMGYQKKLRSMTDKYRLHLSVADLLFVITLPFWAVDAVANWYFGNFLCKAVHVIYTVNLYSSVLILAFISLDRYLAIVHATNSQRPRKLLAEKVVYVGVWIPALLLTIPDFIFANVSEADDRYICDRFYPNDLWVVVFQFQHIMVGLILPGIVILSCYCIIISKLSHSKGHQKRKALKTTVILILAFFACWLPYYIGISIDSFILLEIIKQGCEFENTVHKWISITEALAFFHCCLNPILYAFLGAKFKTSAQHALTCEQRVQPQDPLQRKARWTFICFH
CXCR4 S339F fs*6 (Homo sapiens, UniProt P61073), UniProt P61073, with tags, fused parts or gaps, stated change not applied: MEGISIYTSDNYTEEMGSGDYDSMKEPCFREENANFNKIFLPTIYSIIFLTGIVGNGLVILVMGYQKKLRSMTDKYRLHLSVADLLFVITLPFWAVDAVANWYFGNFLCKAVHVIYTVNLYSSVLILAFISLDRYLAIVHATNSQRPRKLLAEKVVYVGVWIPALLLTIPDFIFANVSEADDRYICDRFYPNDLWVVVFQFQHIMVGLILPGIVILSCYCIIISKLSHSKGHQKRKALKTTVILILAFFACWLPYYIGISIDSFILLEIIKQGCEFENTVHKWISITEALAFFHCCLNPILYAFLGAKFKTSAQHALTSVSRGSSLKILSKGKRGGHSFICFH
CXCR4 S341P fs*25 (Homo sapiens, UniProt P61073), UniProt P61073, with tags, fused parts or gaps, stated change not applied: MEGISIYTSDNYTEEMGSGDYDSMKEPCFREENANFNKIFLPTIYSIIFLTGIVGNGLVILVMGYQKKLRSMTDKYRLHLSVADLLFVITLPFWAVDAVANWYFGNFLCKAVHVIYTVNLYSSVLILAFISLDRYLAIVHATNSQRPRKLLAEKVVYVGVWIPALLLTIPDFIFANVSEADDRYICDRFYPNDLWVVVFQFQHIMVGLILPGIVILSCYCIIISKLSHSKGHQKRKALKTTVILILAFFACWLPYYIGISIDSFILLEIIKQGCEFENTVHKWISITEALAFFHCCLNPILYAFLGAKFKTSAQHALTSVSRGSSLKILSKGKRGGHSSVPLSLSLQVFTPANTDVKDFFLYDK
CXCR4 S339C fs*4 (Homo sapiens, UniProt P61073), UniProt P61073, with tags, fused parts or gaps, stated change not applied: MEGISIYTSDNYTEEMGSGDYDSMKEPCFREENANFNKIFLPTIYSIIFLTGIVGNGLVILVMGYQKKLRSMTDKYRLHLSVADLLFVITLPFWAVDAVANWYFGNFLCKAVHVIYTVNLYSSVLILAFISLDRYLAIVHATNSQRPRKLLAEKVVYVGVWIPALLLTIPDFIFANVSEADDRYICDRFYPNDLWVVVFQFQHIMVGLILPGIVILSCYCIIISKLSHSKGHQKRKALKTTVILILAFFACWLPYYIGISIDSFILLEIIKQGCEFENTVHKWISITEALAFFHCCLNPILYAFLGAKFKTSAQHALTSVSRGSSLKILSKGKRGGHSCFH
UniProt P61073, 1-337 limits assumed: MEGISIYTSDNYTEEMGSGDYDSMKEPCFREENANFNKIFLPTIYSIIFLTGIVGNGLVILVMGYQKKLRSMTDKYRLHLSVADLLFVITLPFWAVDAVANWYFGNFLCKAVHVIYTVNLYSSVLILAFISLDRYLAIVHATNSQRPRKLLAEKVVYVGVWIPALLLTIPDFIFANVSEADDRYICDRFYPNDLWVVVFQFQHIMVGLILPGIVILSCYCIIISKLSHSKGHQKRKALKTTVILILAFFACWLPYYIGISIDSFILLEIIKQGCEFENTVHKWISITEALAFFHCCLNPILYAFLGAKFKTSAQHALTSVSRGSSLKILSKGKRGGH
CXCR4 V320E fs*23 (Homo sapiens, UniProt P61073), UniProt P61073, with tags, fused parts or gaps, stated change not applied: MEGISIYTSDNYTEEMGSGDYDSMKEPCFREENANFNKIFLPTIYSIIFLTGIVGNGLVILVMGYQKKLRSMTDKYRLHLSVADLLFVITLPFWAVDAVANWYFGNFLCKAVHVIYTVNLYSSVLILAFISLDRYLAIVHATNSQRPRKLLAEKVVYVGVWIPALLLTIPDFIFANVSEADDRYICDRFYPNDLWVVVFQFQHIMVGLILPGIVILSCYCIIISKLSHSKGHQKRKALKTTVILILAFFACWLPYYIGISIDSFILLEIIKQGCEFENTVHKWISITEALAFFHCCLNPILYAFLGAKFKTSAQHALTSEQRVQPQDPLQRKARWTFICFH
UniProt P61073, 1-342 limits assumed: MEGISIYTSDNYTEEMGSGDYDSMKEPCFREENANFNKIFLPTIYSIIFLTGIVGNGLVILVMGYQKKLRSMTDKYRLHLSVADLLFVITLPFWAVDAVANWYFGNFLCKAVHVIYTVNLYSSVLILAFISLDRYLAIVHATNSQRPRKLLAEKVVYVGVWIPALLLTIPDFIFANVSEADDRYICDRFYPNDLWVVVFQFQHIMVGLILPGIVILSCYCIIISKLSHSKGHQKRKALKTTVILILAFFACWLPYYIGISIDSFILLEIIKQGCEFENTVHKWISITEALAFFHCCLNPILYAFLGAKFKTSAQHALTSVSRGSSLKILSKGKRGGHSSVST
UniProt P61073, 1-335 limits assumed: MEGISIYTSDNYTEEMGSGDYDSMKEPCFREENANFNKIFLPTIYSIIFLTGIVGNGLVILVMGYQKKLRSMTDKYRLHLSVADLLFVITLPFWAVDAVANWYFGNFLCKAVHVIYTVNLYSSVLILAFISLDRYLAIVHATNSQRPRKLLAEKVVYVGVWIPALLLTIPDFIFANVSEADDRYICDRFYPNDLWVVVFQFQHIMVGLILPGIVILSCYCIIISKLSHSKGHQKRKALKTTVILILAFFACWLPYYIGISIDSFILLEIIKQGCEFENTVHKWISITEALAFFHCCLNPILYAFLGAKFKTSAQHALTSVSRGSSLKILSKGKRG
CXCR4 T318P fs*3 (Homo sapiens, UniProt P61073), UniProt P61073, with tags, fused parts or gaps, stated change not applied: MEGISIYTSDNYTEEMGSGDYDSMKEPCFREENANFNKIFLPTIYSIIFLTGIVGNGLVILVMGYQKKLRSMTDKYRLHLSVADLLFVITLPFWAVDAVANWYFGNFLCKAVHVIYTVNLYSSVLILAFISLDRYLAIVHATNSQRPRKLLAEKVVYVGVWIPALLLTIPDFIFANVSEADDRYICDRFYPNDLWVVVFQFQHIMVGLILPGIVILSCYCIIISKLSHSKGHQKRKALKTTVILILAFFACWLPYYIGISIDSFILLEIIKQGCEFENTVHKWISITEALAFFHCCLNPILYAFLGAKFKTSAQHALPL
UniProt P61073, whole entry E343K: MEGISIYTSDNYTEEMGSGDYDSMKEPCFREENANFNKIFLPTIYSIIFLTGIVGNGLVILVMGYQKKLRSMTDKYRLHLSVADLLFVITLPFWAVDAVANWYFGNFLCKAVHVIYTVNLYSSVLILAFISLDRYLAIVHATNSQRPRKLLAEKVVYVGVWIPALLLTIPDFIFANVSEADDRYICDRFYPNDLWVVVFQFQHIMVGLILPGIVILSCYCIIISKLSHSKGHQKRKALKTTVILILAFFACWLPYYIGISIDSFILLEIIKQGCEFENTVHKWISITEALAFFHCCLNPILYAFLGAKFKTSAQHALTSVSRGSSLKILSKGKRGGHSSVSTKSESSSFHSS

Key:
[1] = molecular target: T1, R334X/R334X CXCR4 (RX/RX Jurkat cells) (Homo sapiens, UniProt P61073); assay: cell-based; conditions: migration towards 0.4 nM CXCL12, ± SE
[2] = molecular target: T2, WT CXCR4 (parental and WT/WT Jurkat cells) (Homo sapiens, UniProt P61073); assay: Ligand binding inhibition assay (AF647-CXCL12), Jurkat cells; conditions: ± SE, read-out: CXCL12 binding inhibition (mavorixafor) IC50
T2 construct: A Jurkat cell line (with endogenous expression of WT CXCR4); endogenous in cells; host or cells: Jurkat E6-1 (parental; clone C3 with silent edits)

[3] = molecular target: T3, R334X/WT CXCR4 (RX/WT Jurkat cells) (Homo sapiens, UniProt P61073); assay: Transwell chemotaxis assay, Jurkat cells; format: cell-based; conditions: Jurkat RX/WT (B2); migration towards 0.4 nM CXCL12; ± SE; read-out: Chemotaxis (mavorixafor) IC50
T3 construct: cells endogenously expressing WT, R334X/WT or R334X/R334X CXCR4 at similar levels; endogenous in cells; host or cells: Jurkat E6-1 clone B2 (CRISPR-Cas9 edited, made at Applied StemCell)

[4] = molecular target: CXCR4 (WT/WT, RX/WT, RX/RX) (Homo sapiens, UniProt P61073); assay: Ligand binding inhibition assay (AF647-CXCL12), Jurkat cells, across all cell lines; conditions: read-out: Potency of inhibition of CXCL12 binding to CXCR4, range
[5] = molecular target: T3, R334X/WT CXCR4 (RX/WT Jurkat cells); assay: Ligand binding inhibition assay (AF647-CXCL12), Jurkat cells; conditions: Jurkat RX/WT (B2), ± SE, read-out: CXCL12 binding inhibition (mavorixafor) IC50
[6] = molecular target: T1, R334X/R334X CXCR4 (RX/RX Jurkat cells); assay: Ca2+ mobilization assay, Jurkat cells; format: cell-based; design: a cellular model of homozygous and heterozygous R334X CXCR4 in an endogenous locus; host or cells: Jurkat (E6-1, ATCC), CRISPR-Cas9 clones A3 and B5 (RX/RX); conditions: stimulated with 100 nM CXCL12, ± SE, read-out: Ca2+ mobilization (mavorixafor) IC50
Experimental: (§1) Stable K562 clones expressing CXCR4 (1 × 10^5 cells/well) were seeded in black 96-well plates with transparent bottom coated with poly-L-lysine (BioCoat®, Corning) and serum-starved for 24 h. Medium was removed and cells were loaded with 100 µl of fluo-4 AM (3 µM, Invitrogen) dye solution for 45 min at 37 °C. Dye solution was prepared by diluting fluo-4 powder in DMSO + 10% Pluronic F127 (Thermo Fisher Scientific, Waltham, Massachusetts, USA) to 3 mM and then preparing the final dilution in assay buffer (HBSS with Ca^2+ and Mg^2+, 20 mM HEPES, 0.375 g/l NaHCO3, 0.1% BSA + 0.77 g/L probenecid [Thermo Fisher Scientific]). Subsequently, 100 µl of assay buffer alone or assay buffer with compound dilutions was added and the plates were equilibrated in the plate reader for an additional 20 min at 37 °C. […] CXCL12 was injected with a simultaneous measurement of fluorescent signal (FlexStation® 3 Multi-Mode Microplate Reader; Molecular Devices, San Jose, California, USA). Raw traces were analyzed in SoftMax Pro 7 Software (Molecular Devices). The arbitrary units were calculated as the difference between maximal and minimal signal after treatment injection, normalized to the baseline signal before injection. Maximal effect (Emax) and half-maximal effective and inhibitory concentrations (EC50 and IC50, respectively) were calculated in Prism (GraphPad Software, San Diego, California, USA).

[7] = molecular target: all CXCR4^WHIM variants (Homo sapiens, UniProt P61073); assay: Ca2+ mobilization assay, K562 cells, pooled over variants; format: cell-based; conditions: 10 nM CXCL12, read-out: IC50 of mavorixafor, Ca2+ mobilization, range over variants
Experimental: as §1

[8] = molecular target: T4, CXCR4 S324V fs*20 (Homo sapiens, UniProt P61073); assay: Ca2+ mobilization assay, K562 cells with stable CXCR4 expression; format: cell-based; conditions: K562 stable S324V fs*20; preincubated with mavorixafor, then 10 nM CXCL12
T4 construct: expressed in transfected cells; host or cells: K562
Experimental: (§2) Stable K562 clones expressing CXCR4 (1 × 10^5 cells/well) were seeded in black 96-well plates with transparent bottom coated with poly-L-lysine (BioCoat®, Corning) and serum-starved for 24 h. Medium was removed and cells were loaded with 100 µl of fluo-4 AM (3 µM, Invitrogen) dye solution for 45 min at 37 °C. Dye solution was prepared by diluting fluo-4 powder in DMSO + 10% Pluronic F127 (Thermo Fisher Scientific, Waltham, Massachusetts, USA) to 3 mM and then preparing the final dilution in assay buffer (HBSS with Ca^2+ and Mg^2+, 20 mM HEPES, 0.375 g/l NaHCO3, 0.1% BSA + 0.77 g/L probenecid [Thermo Fisher Scientific]). Subsequently, 100 µl of assay buffer alone or assay buffer with compound dilutions was added and the plates were equilibrated in the plate reader for an additional 20 min at 37 °C. Jurkat cells (3 × 10^5 cells/well) were incubated with the Screen Quest Calbryte-520 Probenecid-Free and Wash-Free Calcium Assay Kit (AAT Bioquest, Sunnyvale, California, USA) according to manufacturer’s instructions. CXCL12 was injected with a simultaneous measurement of fluorescent signal (FlexStation® 3 Multi-Mode Microplate Reader; Molecular Devices, San Jose, California, USA). Raw traces were analyzed in SoftMax Pro 7 Software (Molecular Devices). The arbitrary units were calculated as the difference between maximal and minimal signal after treatment injection, normalized to the baseline signal before injection. Maximal effect (Emax) and half-maximal effective and inhibitory concentrations (EC50 and IC50, respectively) were calculated in Prism (GraphPad Software, San Diego, California, USA).

[9] = molecular target: T5, CXCR4 L329Q fs*13 (Homo sapiens, UniProt P61073); assay: as above; format: cell-based; conditions: K562 stable L329Q fs*13; preincubated with mavorixafor, then 10 nM CXCL12
T5 construct: expressed in transfected cells; host or cells: K562
Experimental: as §2

[10] = molecular target: T6, CXCR4 S319C fs*24 (Homo sapiens, UniProt P61073); assay: as above; format: cell-based; conditions: K562 stable S319C fs*24; preincubated with mavorixafor, then 10 nM CXCL12
T6 construct: expressed in transfected cells; host or cells: K562
Experimental: as §2

[11] = molecular target: T7, CXCR4 S339F fs*6 (Homo sapiens, UniProt P61073); assay: as above; format: cell-based; conditions: K562 stable S339F fs*6; preincubated with mavorixafor, then 10 nM CXCL12
T7 construct: expressed in transfected cells; host or cells: K562
Experimental: as §2

[12] = molecular target: T8, CXCR4 S341P fs*25 (Homo sapiens, UniProt P61073); assay: as above; format: cell-based; conditions: K562 stable S341P fs*25; preincubated with mavorixafor, then 10 nM CXCL12
T8 construct: expressed in transfected cells; host or cells: K562
Experimental: as §2

[13] = molecular target: T9, CXCR4 S339C fs*4 (Homo sapiens, UniProt P61073); assay: as above; format: cell-based; conditions: K562 stable S339C fs*4; preincubated with mavorixafor, then 10 nM CXCL12
T9 construct: expressed in transfected cells; host or cells: K562
Experimental: as §2

[14] = molecular target: T10, CXCR4 S338X (Homo sapiens, UniProt P61073); assay: as above; format: cell-based; conditions: preincubated with mavorixafor, then 10 nM CXCL12
T10 construct: expressed in transfected cells; host or cells: K562
Experimental: as §2

[15] = molecular target: T11, CXCR4 V320E fs*23 (Homo sapiens, UniProt P61073); assay: as above; format: cell-based; conditions: K562 stable V320E fs*23; preincubated with mavorixafor, then 10 nM CXCL12
T11 construct: expressed in transfected cells; host or cells: K562
Experimental: as §2

[16] = molecular target: T12, WT CXCR4 (Homo sapiens, UniProt P61073); assay: as above; format: cell-based; conditions: preincubated with mavorixafor, then 10 nM CXCL12
T12 construct: cloned into pcDNA3.1(Hygro+) via NheI/EcoRV to give pcDNA3.1_CXCR4; expressed in transfected cells; host or cells: K562
Experimental: as §2

[17] = molecular target: T13, CXCR4 E343X (Homo sapiens, UniProt P61073); assay: as above; format: cell-based; conditions: preincubated with mavorixafor, then 10 nM CXCL12
T13 construct: expressed in transfected cells; host or cells: K562
Experimental: as §2

[18] = molecular target: T14, CXCR4 G336X (Homo sapiens, UniProt P61073); assay: as above; format: cell-based; conditions: preincubated with mavorixafor, then 10 nM CXCL12
T14 construct: expressed in transfected cells; host or cells: K562
Experimental: as §2

[19] = molecular target: T15, CXCR4 T318P fs*3 (Homo sapiens, UniProt P61073); assay: as above; format: cell-based; conditions: K562 stable T318P fs*3; preincubated with mavorixafor, then 10 nM CXCL12
T15 construct: expressed in transfected cells; host or cells: K562
Experimental: as §2

[20] = molecular target: T16, CXCR4 E343K (Homo sapiens, UniProt P61073, E343K); assay: as above; format: cell-based; conditions: preincubated with mavorixafor, then 10 nM CXCL12
T16 construct: expressed in transfected cells; host or cells: K562
Experimental: as §2

[21] = molecular target: T3, R334X/WT CXCR4 (RX/WT Jurkat cells); assay: Ca2+ mobilization assay, Jurkat cells; format: cell-based; conditions: Jurkat RX/WT (B2); stimulated with 100 nM CXCL12; ± SE; read-out: Ca2+ mobilization (mavorixafor) IC50
Experimental: as §2

[22] = molecular target: T2, WT CXCR4 (parental and WT/WT Jurkat cells); assay: Ca2+ mobilization assay, Jurkat cells; format: cell-based; conditions: stimulated with 100 nM CXCL12, ± SE, read-out: Ca2+ mobilization (mavorixafor) IC50
Experimental: as §2

[23] = molecular target: T1, R334X/R334X CXCR4 (RX/RX Jurkat cells); assay: cell-based; conditions: AF647-CXCL12, ± SE
[24] = molecular target: WT CXCR4 (WT/WT Jurkat cells) (Homo sapiens, UniProt P61073); conditions: read-out: Chemotaxis (mavorixafor) IC50; Jurkat WT/WT (C3); migration towards 0.4 nM CXCL12; ± SE

SMILES: NCCCCN(Cc1nc2ccccc2[nH]1)[C@H]1CCCc2cccnc21 [mavorixafor]
- IC50 ([1]; Chemotaxis (mavorixafor) IC50, Jurkat RX/RX (A3)): 188 ± 20 nM
- IC50 ([1]; Chemotaxis (mavorixafor) IC50, Jurkat RX/RX (B5)): 153 ± 23 nM
- IC50 ([2]; Jurkat Parental): 1.9 ± 0.09 nM
- IC50 ([2]; Jurkat WT/WT (C3)): 1.6 ± 0.12 nM
- IC50 [3]: 366 ± 334 nM
- IC50 [4]: 1.6 to 2.4 nM
- IC50 [5]: 2.4 ± 0.07 nM
- IC50 ([6]; Jurkat RX/RX (A3)): 5 ± 2.8 nM
- IC50 ([6]; Jurkat RX/RX (B5)): 2 ± 1.2 nM
- IC50 [7]: 7.6 to 39 nM
- IC50 [8]: 37.9 nM
- IC50 [9]: 19.3 nM
- IC50 [10]: 39 nM
- IC50 [11]: 26.7 nM
- IC50 [12]: 18.2 nM
- IC50 [13]: 8.6 nM
- IC50 [14]: 7.7 nM
- IC50 [15]: 17 nM
- IC50 [16]: 6.3 nM
- IC50 [17]: 8.8 nM
- IC50 [18]: 11.8 nM
- IC50 [19]: 7.6 nM
- IC50 [20]: 19.4 nM
- IC50 [21]: 3.4 ± 3.6 nM
- IC50 ([22]; Jurkat Parental): 1.5 ± 0.9 nM
- IC50 ([22]; Jurkat WT/WT (C3)): 0.7 ± 0.3 nM
- IC50 ([23]; CXCL12 binding inhibition (mavorixafor) IC50, Jurkat RX/RX (A3)): 2.1 ± 0.1 nM
- IC50 ([23]; CXCL12 binding inhibition (mavorixafor) IC50, Jurkat RX/RX (B5)): 1.9 ± 0.15 nM
- IC50 [24]: 30 ± 10 nM
